“And” between values parts separate entries of the source, which are not always exact repeats. Identical values can stand only once. The list shows a part of the results, in another mix than the full data. Results filed as inconclusive are left out. Where a structure was tested more than once in an assay, its records may differ in their call. The source made the active and inactive calls. Unless noted, calls come from the whole dose curve; as a rule, active = well fitted curve in the direction sought with a large enough effect in the repeat runs; inconclusive = weak or mixed curves; inactive = no such curve, though single readings can be large; an effect the other way counts as inactive or inconclusive.
Key:
[1] = molecular target: Androgen receptor (Homo sapiens) (UniProt P10275); experiment: qHTS assay to identify small molecule agonists of the androgen receptor (AR) signaling pathway using the MDA cell line (AID 743040; note: nearly all actives have a fitted effect of over 20% in size); conditions: MDA-kb2 AR-luc cells, MMTV luciferase, 16 h; at 70.3 µM (top of the series); stronger effect = higher value
[2] = qHTS assay to identify small molecule antagonists of the thyroid receptor (TR) signaling pathway (AID 743065); conditions: GH3.TRE-Luc, T3-stimulated luciferase inhibition, 23.5 h; series mostly up to 70.3 µM; note: nearly all actives have a fitted effect of over 55% in size; note: potency is the fitted concentration of half-maximal effect
Outline: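 GH3.TRE-Luc rat pituitary cells (two TREs driving luciferase) were dosed with compound, then stimulated with 1 nM T3 (final) for 23.5 h at 37 C. ONE-Glo luminescence was the read-out, with CellTiter-Fluor fluorescence as the cytotoxicity counter-screen.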

The chains behind the UniProt entries cited, without tags or fusion partners. Where a name states a change or a piece, a line headed by the entry shows the natural chain unless it says otherwise.
UniProt P10275: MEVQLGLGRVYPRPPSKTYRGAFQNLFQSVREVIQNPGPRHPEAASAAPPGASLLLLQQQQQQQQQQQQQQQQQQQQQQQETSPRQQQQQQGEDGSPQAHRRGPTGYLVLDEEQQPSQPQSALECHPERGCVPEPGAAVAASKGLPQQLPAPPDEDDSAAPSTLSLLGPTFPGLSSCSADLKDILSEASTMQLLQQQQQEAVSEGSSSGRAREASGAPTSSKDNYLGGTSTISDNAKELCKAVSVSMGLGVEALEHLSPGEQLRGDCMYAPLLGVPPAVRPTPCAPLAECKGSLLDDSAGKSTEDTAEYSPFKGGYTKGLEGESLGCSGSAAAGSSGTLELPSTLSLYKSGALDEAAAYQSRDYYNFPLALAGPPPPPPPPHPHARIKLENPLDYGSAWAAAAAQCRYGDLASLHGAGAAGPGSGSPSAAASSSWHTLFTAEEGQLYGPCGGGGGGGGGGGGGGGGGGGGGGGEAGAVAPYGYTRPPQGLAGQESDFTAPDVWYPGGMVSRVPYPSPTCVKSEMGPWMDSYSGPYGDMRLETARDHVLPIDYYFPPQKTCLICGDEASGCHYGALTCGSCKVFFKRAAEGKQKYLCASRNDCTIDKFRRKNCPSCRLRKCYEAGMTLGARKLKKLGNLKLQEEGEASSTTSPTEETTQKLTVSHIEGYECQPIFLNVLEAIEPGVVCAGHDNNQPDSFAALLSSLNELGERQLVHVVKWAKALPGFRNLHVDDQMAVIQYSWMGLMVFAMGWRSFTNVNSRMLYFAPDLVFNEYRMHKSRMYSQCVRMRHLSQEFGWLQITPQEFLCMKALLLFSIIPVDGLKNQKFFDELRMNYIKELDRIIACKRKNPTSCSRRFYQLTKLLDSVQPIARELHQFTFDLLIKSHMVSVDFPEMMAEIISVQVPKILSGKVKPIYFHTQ
UniProt P03372, whole entry, looked up: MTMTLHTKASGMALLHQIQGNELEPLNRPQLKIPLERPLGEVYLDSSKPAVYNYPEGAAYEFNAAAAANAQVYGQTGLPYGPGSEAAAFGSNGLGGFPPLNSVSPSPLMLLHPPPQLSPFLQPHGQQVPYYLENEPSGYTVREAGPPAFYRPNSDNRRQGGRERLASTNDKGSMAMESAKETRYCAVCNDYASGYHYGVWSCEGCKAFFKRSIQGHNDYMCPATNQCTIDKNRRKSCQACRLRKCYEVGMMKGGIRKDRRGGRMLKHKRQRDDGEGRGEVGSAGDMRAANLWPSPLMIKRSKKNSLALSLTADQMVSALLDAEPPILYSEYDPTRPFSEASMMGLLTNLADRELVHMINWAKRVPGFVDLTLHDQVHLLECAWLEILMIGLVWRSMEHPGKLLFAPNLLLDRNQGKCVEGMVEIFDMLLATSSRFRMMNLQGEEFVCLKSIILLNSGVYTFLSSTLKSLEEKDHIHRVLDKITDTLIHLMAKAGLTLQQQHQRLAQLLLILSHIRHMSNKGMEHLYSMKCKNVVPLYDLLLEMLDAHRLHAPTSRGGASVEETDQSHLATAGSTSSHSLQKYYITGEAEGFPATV
UniProt P11511: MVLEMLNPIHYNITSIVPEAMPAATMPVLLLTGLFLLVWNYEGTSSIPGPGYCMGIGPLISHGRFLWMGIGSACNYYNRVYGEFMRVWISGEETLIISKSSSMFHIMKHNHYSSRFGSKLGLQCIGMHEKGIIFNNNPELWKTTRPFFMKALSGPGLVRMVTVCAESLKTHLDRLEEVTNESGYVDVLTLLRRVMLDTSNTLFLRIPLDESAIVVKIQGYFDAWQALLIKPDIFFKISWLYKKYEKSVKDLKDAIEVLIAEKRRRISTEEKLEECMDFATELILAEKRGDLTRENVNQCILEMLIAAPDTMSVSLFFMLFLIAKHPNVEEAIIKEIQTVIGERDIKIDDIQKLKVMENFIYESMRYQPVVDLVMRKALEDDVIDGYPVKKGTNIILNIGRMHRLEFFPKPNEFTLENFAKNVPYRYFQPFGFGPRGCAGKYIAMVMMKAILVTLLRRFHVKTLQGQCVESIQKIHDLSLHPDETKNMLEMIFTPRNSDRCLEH
UniProt P35869: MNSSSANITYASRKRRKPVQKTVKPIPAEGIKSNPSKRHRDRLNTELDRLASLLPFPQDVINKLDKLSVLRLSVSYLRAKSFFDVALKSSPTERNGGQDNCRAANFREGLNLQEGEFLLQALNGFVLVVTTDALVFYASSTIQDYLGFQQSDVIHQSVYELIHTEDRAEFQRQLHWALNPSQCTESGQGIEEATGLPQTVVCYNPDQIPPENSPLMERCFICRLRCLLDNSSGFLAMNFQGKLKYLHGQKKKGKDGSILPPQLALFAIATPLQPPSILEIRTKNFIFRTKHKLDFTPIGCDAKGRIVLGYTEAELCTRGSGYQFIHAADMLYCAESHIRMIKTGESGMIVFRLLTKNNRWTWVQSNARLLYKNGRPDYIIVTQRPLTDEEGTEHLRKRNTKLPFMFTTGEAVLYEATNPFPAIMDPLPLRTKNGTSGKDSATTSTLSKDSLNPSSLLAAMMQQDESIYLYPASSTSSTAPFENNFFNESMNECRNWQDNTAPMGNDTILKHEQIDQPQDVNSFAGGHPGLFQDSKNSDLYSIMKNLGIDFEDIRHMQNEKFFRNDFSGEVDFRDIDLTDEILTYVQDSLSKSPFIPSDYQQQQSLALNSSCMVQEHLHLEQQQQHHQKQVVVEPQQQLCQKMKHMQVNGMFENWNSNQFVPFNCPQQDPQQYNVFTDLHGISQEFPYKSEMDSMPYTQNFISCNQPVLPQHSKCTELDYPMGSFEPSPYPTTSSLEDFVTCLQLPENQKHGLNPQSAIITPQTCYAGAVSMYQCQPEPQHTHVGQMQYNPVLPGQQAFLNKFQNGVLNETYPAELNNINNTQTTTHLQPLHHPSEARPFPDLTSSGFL
UniProt P37231: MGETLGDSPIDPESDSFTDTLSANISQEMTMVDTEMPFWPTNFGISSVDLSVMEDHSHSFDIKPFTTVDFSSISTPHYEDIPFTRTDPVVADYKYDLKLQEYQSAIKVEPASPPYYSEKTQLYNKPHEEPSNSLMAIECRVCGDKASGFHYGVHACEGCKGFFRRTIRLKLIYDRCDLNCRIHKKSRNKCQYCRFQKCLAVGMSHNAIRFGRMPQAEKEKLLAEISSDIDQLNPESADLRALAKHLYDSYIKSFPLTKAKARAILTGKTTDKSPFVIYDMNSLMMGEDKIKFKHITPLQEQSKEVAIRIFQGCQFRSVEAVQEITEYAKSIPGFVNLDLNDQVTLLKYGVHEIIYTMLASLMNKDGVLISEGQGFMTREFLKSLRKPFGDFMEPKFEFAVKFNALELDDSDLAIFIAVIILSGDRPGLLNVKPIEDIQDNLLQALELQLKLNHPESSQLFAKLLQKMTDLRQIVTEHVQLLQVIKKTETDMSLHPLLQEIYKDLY

[3] = molecular target: Estrogen receptor (Homo sapiens) (UniProt P03372); experiment: qHTS assay to identify small molecule antagonists of the estrogen receptor alpha (ER-alpha) signaling pathway (AID 743069; active = well fitted curve in the direction sought with a large enough effect in the signal ratio in the repeat runs, not every such curve was filed as active; the % refers to the signal ratio); conditions: HEK293 ER-alpha-UAS-bla, beta-lactamase ratio, antagonist mode; series mostly up to 69.4 µM
Outline: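 HEK293 ER-alpha-UAS-bla GripTite cells, held overnight in 2% charcoal-stripped FBS, 5,000 cells/well, preincubated 4 h, then compound plus 17beta-estradiol for 18 h at 37C. Beta-lactamase read by LiveBLAzer B/G FRET substrate, 2 h at room temperature.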

[4] = molecular target: Estrogen receptor (Homo sapiens) (UniProt P03372); experiment: qHTS assay to identify small molecule agonists of the estrogen receptor alpha (ER-alpha) signaling pathway (AID 743075; calls by dose curve); conditions: HEK293 ER-alpha-UAS-bla, beta-lactamase FRET ratio, 18 h; series mostly up to 70.1 µM
Aromatase (Homo sapiens) = Aromatase (Homo sapiens) (UniProt P11511); experiment: qHTS assay to identify aromatase inhibitors (AID 743083); conditions: MCF-7 aro ERE, testosterone-driven ERE luciferase, 24 h; series mostly up to 70.3 µM; note: nearly all actives have a fitted effect of over 55% in size
[5] = qHTS assay to identify aromatase inhibitors - cell viability counter screen (AID 743084); conditions: MCF-7 aro ERE viability, CellTiter-Fluor, 24 h; series mostly up to 70.3 µM;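 note: cells stimulated with testosterone during compound exposure; nearly all actives have a fitted effect of over 55% in size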
[6] = molecular target: Aryl hydrocarbon receptor (Homo sapiens) (UniProt P35869); experiment: qHTS assay to identify small molecule that activate the aryl hydrocarbon receptor (AhR) signaling pathway (AID 743085); conditions: HepG2 AhR-luc (HG2L7.5c1), luciferase, 24 h; series mostly up to 70.3 µM; note: nearly all actives have a fitted effect of over 15% in size; note: potency is the fitted concentration of half-maximal effect;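 for activation: HG2L7.5c1 human HepG2 liver cells with stably integrated DRE-driven firefly reporter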
[7] = molecular target: Peroxisome proliferator-activated receptor gamma (Homo sapiens) (UniProt P37231); experiment: qHTS assay to identify small molecule antagonists of the peroxisome proliferator-activated receptor gamma (PPARg) signaling pathway (AID 743191; calls by dose curve; note: nearly all actives have a fitted effect of over 30% in size); conditions: HEK293H PPARg-UAS-bla, beta-lactamase ratio, antagonist, 17 h; at 62.6 µM (top of the series) unless noted
[8] = qHTS assay to identify small molecule antagonists of the peroxisome proliferator-activated receptor gamma (PPARg) signaling pathway - cell viability counter screen (AID 743194); conditions: PPARg-bla HEK293H viability, CellTiter-Glo luminescence, 17 h, co-treated with 50 nM rosiglitazone; series mostly up to 62.6 µM; note: nearly all actives have a fitted effect of over 55% in size
Outline: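 Cytotoxicity counter screen in PPARg-bla HEK293H cells, same wells as reporter assay. Compounds plus 50 nM rosiglitazone (final) for 17 h at 37 C, then viability read by CellTiter-Glo luminescence.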

[9] = qHTS assay for small molecule activators of the heat shock response signaling pathway - cell viability counter screen (AID 743209); conditions: HSE-bla HeLa viability, CellTiter-Glo luminescence, 5 h; series mostly up to 62.6 µM; note: nearly all actives have a fitted effect of over 50% in size
Outline: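 Counter screen for cytotoxicity in HeLa HSE-bla reporter cells. Treatment was 5 h at 37 C; viability was detected by luminescent ATP assay (CellTiter-Glo) in the same wells as the beta-lactamase read.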

[10] = qHTS assay for small molecule activators of the heat shock response signaling pathway (AID 743210; active = well fitted activation curve with a large enough effect in the signal ratio in the repeat runs, with a control signal flat, not every such curve was filed as active; the % refers to the signal ratio); conditions: HeLa HSE-bla reporter, beta-lactamase ratio, 5 h; at 62.6 µM (top of the series) unless noted
Outline: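 HSE-bla HeLa cells (beta-lactamase reporter under heat shock response elements), plated overnight, then exposed to compounds 5 h at 37 C; LiveBLAzer B/G FRET substrate added, 2.5 h at room temperature, fluorescence intensity read.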

[11] = qHTS assay to identify small molecule antagonists of the androgen receptor (AR) signaling pathway using the MDA cell line - cell viability counter screen (AID 743041; note: nearly all actives have a fitted effect of over 45% in size); conditions: MDA-kb2 viability, CellTiter-Fluor, 16 h, cells co-treated with R1881 androgen agonist; series mostly up to 70.3 µM
Outline: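 MDA-kb2 AR-luc cells (MMTV-luciferase, AR/GR responsive) treated with compounds plus R1881 agonist for 16 h at 37C. CellTiter-Fluor added at 15.5 h; fluorescence read after 30 min in the same wells.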

[12] = test system: thyroid hormone receptor (rat, GH3 cells); experiment: qHTS assay to identify small molecule agonists of the thyroid receptor (TR) signaling pathway (AID 743066; calls by dose curve); conditions: GH3.TRE-Luc cells, TR agonist luciferase, 24 h; at 83.9 µM (top of the series) unless noted
[13] = qHTS assay to identify small molecule antagonists of the estrogen receptor alpha (ER-alpha) signaling pathway - cell viability counter screen (AID 743074; calls by dose curve;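 note: HEK293 cells carrying ER-alpha-UAS-bla reporter stimulated with 17beta-estradiol; nearly all actives have a fitted effect of over 45% in size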); conditions: ERalpha-bla HEK293 viability, CellTiter-Glo luminescence, 18 h; series mostly up to 69.4 µM
[14] = molecular target: Estrogen receptor (Homo sapiens) (UniProt P03372); experiment: qHTS assay to identify small molecule agonists of the estrogen receptor alpha (ER-alpha) signaling pathway using the BG1 cell line (AID 743079); conditions: BG1Luc4E2 cells, ERE-luciferase agonist, 22 h; series mostly up to 70.3 µM; note: nearly all actives have a fitted effect of over 20% in size
[15] = qHTS assay to identify small molecule antagonists of the estrogen receptor alpha (ER-alpha) signaling pathway using the BG1 cell line (AID 743080; calls by dose curve;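 note: BG1 cells stimulated with 17beta-estradiol alongside compound; nearly all actives have a fitted effect of over 25% in size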); conditions: BG1Luc4E2 ERE-luciferase antagonist mode, luminescence; at 70.3 µM (top of the series) unless noted
Outline: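 Seeding, 24 h rest, compound transfer from DMSO, 17beta-estradiol addition, 21.5 h incubation, CellTiter-Fluor (30 min, 37 C), then ONE-Glo (30 min, room temperature): this sequence was run on BG1-Luc-4E2 reporter cells.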

[16] = qHTS assay to identify small molecule antagonists of the estrogen receptor alpha (ER-alpha) signaling pathway using the BG1 cell line - cell viability counter screen (AID 743081); conditions: BG1Luc4E2 viability, CellTiter-Fluor, 22 h; series mostly up to 70.3 µM;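 note: compound given together with 17beta-estradiol as the ER stimulus; nearly all actives have a fitted effect of over 45% in size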; note: potency is the fitted concentration of half-maximal effect
[17] = molecular target: Androgen receptor (Homo sapiens) (UniProt P10275); experiment: qHTS assay to identify small molecule antagonists of the androgen receptor (AR) signaling pathway (AID 743035; active = well fitted inhibition curve with a large enough effect in the signal ratio in the repeat runs, not every such curve was filed as active; the % refers to the signal ratio); conditions: HEK293 AR-UAS-bla, R1881-stimulated, beta-lactamase FRET, 16 h; series mostly up to 58.5 µM
[18] = molecular target: Androgen receptor (Homo sapiens) (UniProt P10275); experiment: qHTS assay to identify small molecule agonists of the androgen receptor (AR) signaling pathway (AID 743036; active = well fitted activation curve with a large enough effect in the signal ratio in the repeat runs, with a control signal flat, not every such curve was filed as active; the % refers to the signal ratio); conditions: HEK293 AR-UAS-bla GripTite, beta-lactamase FRET ratio, 16 h; at 62.4 µM (top of the series)
[19] = molecular target: Androgen receptor (Homo sapiens) (UniProt P10275); experiment: qHTS assay to identify small molecule antagonists of the androgen receptor (AR) signaling pathway using the MDA cell line (AID 743042; note: nearly all actives have a fitted effect of over 55% in size); conditions: MDA-kb2 AR-luc, MMTV luciferase, R1881 antagonist, 16 h; series mostly up to 70.3 µM
% is set by controls: 0 for no effect and ±100 for the full control effect.

CN(C(=O)Cc1ccc(Cl)c(Cl)c1)[C@H]1CC[C@@]2(CCCO2)C[C@@H]1N1CCCC1
active: Potency [2] 21.1 µM
inactive: activity change [1] -11.5% | Potency [3] | Potency [4] | Potency (Aromatase (Homo sapiens)) | Potency [5] | Potency [6] | ratio activity, negative = inhibition [7] -9.98% | Potency [8] | Potency [9] | activation [10] 0.35%

CN(C(=O)Cc1cccc2occc12)[C@H]1CC[C@@]2(CCCO2)C[C@@H]1N1CCCC1
inactive: Potency [11] | Potency [2] | activation [12] -1.91% | Potency [3] | Potency [13] | Potency [4] | Potency [14] | activity change, negative = inhibition [15] 2.51% | Potency (Aromatase (Homo sapiens)) | Potency [5] | Potency [6] | ratio activity, negative = inhibition [7] -23.1% | Potency [8] | Potency [9] | activation [10] 0.579%

Cc1cc([N+](=O)[O-])cc([N+](=O)[O-])c1O
active: Potency [16] 15.4 µM
inactive: activity change [1] -11.2% and -12.9% | activation [12] -6.74% and -7.65% | Potency [9]
inactive and 43.3 µM (active): Potency [6]

CN(C(=O)Cc1ccccc1)[C@H]1CC[C@@]2(CCCO2)C[C@@H]1N1CCCC1
inactive: Potency [17] | activation [18] -14.1% | activity change [1] -1.01% | Potency [11] | Potency [19] | Potency [2] | activation [12] -0.914% | Potency [3] | Potency [4] | Potency [14] | activity change, negative = inhibition [15] -10.1% | Potency (Aromatase (Homo sapiens)) | Potency [6] | ratio activity, negative = inhibition [7] 7.88% | Potency [8] | Potency [9] | activation [10] 0.0582%

CN(N=O)C(=N)N[N+](=O)[O-]
inactive: Potency [11] | activation [12] -0.0802% | Potency [16] | activation [10] 1.04%

COP(=S)(Cl)OC
inactive: Potency [11] | Potency [2] | activation [12] -1.32% [at 95.2 µM] | Potency [3] | Potency [13] | Potency [4] | Potency [14] | activity change, negative = inhibition [15] -0.535% [at 95 µM] | Potency [16] | Potency (Aromatase (Homo sapiens)) | Potency [5] | Potency [6] | Potency [8] | Potency [9] | activation [10] 3.98% [at 81.1 µM]

N#CSc1ccc([N+](=O)[O-])cc1[N+](=O)[O-]
active: Potency [2] 12.2 µM
inactive: Potency [6]

CCOC(=O)Cl
inactive: Potency [11] | Potency [2] | activation [12] -0.207% | Potency [3] | Potency [13] | Potency [4] | Potency [14] | activity change, negative = inhibition [15] -7.72% | Potency [16] | Potency (Aromatase (Homo sapiens)) | Potency [5] | Potency [6] | Potency [8] | Potency [9] | activation [10] 0.351%

CC(C)OP(=S)(OC(C)C)SCCNS(=O)(=O)c1ccccc1
active: Potency [6] 5.45 µM
inactive: Potency [11] | Potency [13] | Potency [16] | Potency [5] | Potency [9] | activation [10] 0.0276%

CCOP(=S)(CC)Sc1ccccc1 (stereo not given)
inactive: Potency [11] | Potency [2] | activation [12] -2.49% | Potency [3] | Potency [13] | Potency [4] | activity change, negative = inhibition [15] 4.35% | Potency [16] | Potency [5] | Potency [6] | Potency [8] | Potency [9] | activation [10] 2.09%

CCCCC(CC)CO[P+](=O)OCC(CC)CCCC (stereo not given)
inactive: Potency [11] | Potency [2] | activation [12] -0.306% | Potency [3] | Potency [13] | Potency [4] | Potency [14] | activity change, negative = inhibition [15] 6.73% | Potency [16] | Potency (Aromatase (Homo sapiens)) | Potency [5] | Potency [6] | ratio activity, negative = inhibition [7] 0.543% | Potency [8] | Potency [9] | activation [10] -0.0125%

CC(C)CCCCCCCOP(OCCCCCCCC(C)C)Oc1ccccc1
inactive: Potency [11] | activation [12] -1.7% | Potency [13] | Potency [4] | Potency [14] | activity change, negative = inhibition [15] 21.8% | Potency [16] | Potency (Aromatase (Homo sapiens)) | Potency [5] | Potency [6] | ratio activity, negative = inhibition [7] -14.5% | Potency [8] | Potency [9] | activation [10] 0.647%

O=P(Cl)(Oc1ccccc1)Oc1ccccc1
inactive: Potency [11] | Potency [2] | Potency [3] | Potency [13] | Potency [4] | Potency [14] | activity change, negative = inhibition [15] 8.43% | Potency [16] | Potency (Aromatase (Homo sapiens)) | Potency [5] | Potency [6] | ratio activity, negative = inhibition [7] -2.86% | Potency [8] | Potency [9] | activation [10] -0.0858%

O=P(Cl)(Cl)c1ccccc1
inactive: Potency [11] | Potency [2] | activation [12] 0.504% | Potency [3] | Potency [13] | Potency [4] | Potency [14] | activity change, negative = inhibition [15] -4.74% | Potency [16] | Potency (Aromatase (Homo sapiens)) | Potency [5] | Potency [6] | ratio activity, negative = inhibition [7] 12.7% | Potency [8] | Potency [9] | activation [10] -1.2%

Source: PubChem BioAssay (Tox21)
